Data as given in patent EP0606463B1, “NEUROMEDIN B RECEPTOR ANTAGONISTS” (The Administrators of The Tulane Educational Fund, priority 1992, dated 1994).

Amino acid sequences for entries named in this document (tags omitted). A change or cut given only in a name is not applied to a line headed by its entry.
UniProt P52500: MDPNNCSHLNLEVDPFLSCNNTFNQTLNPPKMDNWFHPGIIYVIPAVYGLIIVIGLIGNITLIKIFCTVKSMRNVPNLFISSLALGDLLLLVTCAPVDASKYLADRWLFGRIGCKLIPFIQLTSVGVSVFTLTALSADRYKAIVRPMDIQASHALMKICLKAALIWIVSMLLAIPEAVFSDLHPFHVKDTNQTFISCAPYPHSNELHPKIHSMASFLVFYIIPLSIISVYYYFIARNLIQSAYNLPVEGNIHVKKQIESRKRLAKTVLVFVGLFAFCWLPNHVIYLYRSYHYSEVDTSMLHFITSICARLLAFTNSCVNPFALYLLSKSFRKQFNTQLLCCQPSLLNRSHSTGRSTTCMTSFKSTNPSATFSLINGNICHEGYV

Biological target: T1, GRP Receptor (Rattus norvegicus, UniProt P52500)
T1 construct: from tissue; host or cells: dispersed pancreatic acini
Test: Amylase release from rat pancreatic acini
Format: cell-based

Structure (SMILES): C[C@@H](O)[C@H](NC(=O)[C@@H]1CSSC[C@H](NC(=O)[C@H](N)Cc2ccc3ccccc3c2)C(=O)N[C@@H](Cc2ccccc2)C(=O)N[C@H](Cc2c[nH]c3ccccc23)C(=O)N[C@@H](CCCCN)C(=O)N[C@@H]([C@@H](C)O)C(=O)N1)C(N)=O [Analog #18, [Phe^3, Thr^6,8]-cycle SS-octa]
- Rat Pancreatic Acini Amylase Release Alone (10µM) (analog 10 µM alone, no-additive control 4 ± 1): 3 ± 1 % total
- Rat Pancreatic Acini Amylase Release Plus Bn(0.3 nM) (analog 10 µM plus Bn 0.3 nM, Bn without analog 15 ± 1): 14 ± 1 % total
